Assay results from patent publication US20190175744A1, “INSULIN-INCRETIN CONJUGATES” (Merck Sharp & Dohme Corp., priority 2016, published 2019).

Protein sequences, listed by entry. Tags and fused reporters are not part of them. Residues count along the entry.
UniProt P43220, 24-463: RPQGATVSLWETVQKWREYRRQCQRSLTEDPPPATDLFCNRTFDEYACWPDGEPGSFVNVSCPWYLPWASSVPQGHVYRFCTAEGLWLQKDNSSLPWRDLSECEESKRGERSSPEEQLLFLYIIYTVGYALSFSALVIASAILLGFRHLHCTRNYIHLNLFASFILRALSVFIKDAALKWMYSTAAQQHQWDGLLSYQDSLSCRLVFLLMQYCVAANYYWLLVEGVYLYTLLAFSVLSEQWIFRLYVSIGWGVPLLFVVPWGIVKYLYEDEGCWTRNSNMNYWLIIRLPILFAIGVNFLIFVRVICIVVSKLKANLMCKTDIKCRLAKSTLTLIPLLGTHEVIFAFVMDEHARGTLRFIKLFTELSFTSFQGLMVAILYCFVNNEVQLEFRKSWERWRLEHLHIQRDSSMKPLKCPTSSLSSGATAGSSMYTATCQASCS
UniProt P47871, 26-477: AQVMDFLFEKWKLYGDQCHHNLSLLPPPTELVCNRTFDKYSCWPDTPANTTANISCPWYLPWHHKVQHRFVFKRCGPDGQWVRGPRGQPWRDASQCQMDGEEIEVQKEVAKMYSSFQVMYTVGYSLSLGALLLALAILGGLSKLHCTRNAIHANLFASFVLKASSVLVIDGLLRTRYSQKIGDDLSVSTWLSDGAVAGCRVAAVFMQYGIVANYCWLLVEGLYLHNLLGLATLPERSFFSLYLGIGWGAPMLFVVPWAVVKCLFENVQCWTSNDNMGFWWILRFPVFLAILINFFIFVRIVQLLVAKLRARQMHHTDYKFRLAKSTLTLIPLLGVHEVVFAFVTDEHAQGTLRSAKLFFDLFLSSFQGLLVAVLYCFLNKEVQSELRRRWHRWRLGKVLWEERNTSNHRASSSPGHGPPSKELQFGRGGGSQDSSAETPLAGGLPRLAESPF

Key:
human GLP1R = human GLP1R (Homo sapiens, UniProt P43220); assay: cAMP activity assay, cells expressing human GLP1R; format: cell-based
human GCGR = target: T1, human GCGR (Homo sapiens, UniProt P47871); assay: cAMP activity assay, cells expressing human GCGR; format: cell-based; settings: for GCGR/GLP1R ratio: Table 5, ratio of hGCGR EC50 to hGLP1R EC50;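 for all read-outs here: cAMP production read by luminescence after one hour of peptide exposure at room temperature, EC50 from logistic curve fit, native glucagon and GLP-1 as control peptides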
T1 construct: expressed in transfected cells; grown with Blasticidin and Hygromycin

Structure (SMILES) | EC50 (human GLP1R) [pM] | EC50 (human GLP1R; read-out: Incretin Receptor Assay (cAMP) EC50 GLP1R (Human)) [pM] | EC50 (human GCGR) [pM] | GCGR/GLP1R ratio (human GCGR)
CCCCCCCCCCCCCCCC(=O)N[C@@H](CCC(=O)N[C@@H](CCC(=O)NCCCC[C@H](NC(=O)[C@H](CC(=O)O)NC(=O)[C@H](CO)NC(=O)[C@@H](NC(=O)[C@H](Cc1ccccc1)NC(=O)[C@@H](NC(=O)CNC(=O)[C@H](CCC(N)=O)NC(=O)[C@@H](CO)NC(=O)[C@@H](N)Cc1c[nH]cn1)[C@@H](C)O)[C@@H](C)O)C(=O)N[C@@H](CO)C(=O)N[C@@H](CCCCN)C(=O)N[C@@H](Cc1ccc(O)cc1)C(=O)N[C@@H](CC(C)C)C(=O)N[C@@H](CC(=O)O)C(=O)N[C@@H](CCC(=O)O)C(=O)N[C@@H](CCCNC(=N)N)C(=O)N[C@@H](C)C(=O)N[C@@H](C)C(=O)N[C@@H](CCC(N)=O)C(=O)N[C@@H](CC(=O)O)C(=O)N[C@@H](Cc1ccccc1)C(=O)N[C@H](C(=O)N[C@@H](CCCCN=[N+]=[N-])C(=O)N[C@@H](Cc1c[nH]c2ccccc12)C(=O)N[C@@H](CC(C)C)C(=O)N[C@@H](CC(C)C)C(=O)N[C@@H](CC(=O)O)C(=O)N[C@H](C(N)=O)[C@@H](C)O)C(C)C)C(=O)O)C(=O)O [PEP74] | 50 | 50 |  | 
CC(C)C[C@H](NC(=O)[C@H](Cc1ccc(O)cc1)NC(=O)[C@H](CCCCN)NC(=O)[C@H](CO)NC(=O)[C@H](Cc1ccc(O)cc1)NC(=O)[C@H](CC(=O)O)NC(=O)[C@H](CO)NC(=O)[C@@H](NC(=O)[C@H](Cc1ccccc1)NC(=O)[C@@H](NC(=O)CNC(=O)[C@H](CCC(N)=O)NC(=O)[C@@H](CO)NC(=O)[C@@H](N)Cc1c[nH]cn1)[C@@H](C)O)[C@@H](C)O)C(=O)N[C@@H](CC(=O)O)C(=O)N[C@@H](CCC(=O)O)C(=O)N[C@@H](CCCNC(=N)N)C(=O)N[C@@H](C)C(=O)N[C@@H](C)C(=O)N[C@@H](CCC(N)=O)C(=O)N[C@@H](CC(=O)O)C(=O)N[C@@H](Cc1ccccc1)C(=O)N[C@H](C(=O)N[C@@H](CCCCNC(=O)COCCOCCNC(=O)COCCOCCNC(=O)CC[C@H](NC(=O)CCCCCCCCCCCCCCCN=[N+]=[N-])C(=O)O)C(=O)N[C@@H](Cc1c[nH]c2ccccc12)C(=O)N[C@@H](CC(C)C)C(=O)N[C@@H](CC(C)C)C(=O)N[C@@H](CC(=O)O)C(=O)N[C@H](C(N)=O)[C@@H](C)O)C(C)C [PEP25] | 50 |  | 40 | 0.8
CCCCCCCCCCCCCCCC(=O)N[C@@H](CCC(=O)N[C@@H](CCC(=O)NCCCC[C@H](NC(=O)[C@H](CC(=O)O)NC(=O)[C@H](CO)NC(=O)[C@@H](NC(=O)[C@H](Cc1ccccc1)NC(=O)[C@@H](NC(=O)CNC(=O)[C@H](CCC(N)=O)NC(=O)C(C)(C)NC(=O)[C@@H](N)Cc1c[nH]cn1)[C@@H](C)O)[C@@H](C)O)C(=O)N[C@@H](CO)C(=O)N[C@@H](CCCCN)C(=O)N[C@@H](Cc1ccc(O)cc1)C(=O)N[C@@H](CC(C)C)C(=O)N[C@@H](CC(=O)O)C(=O)NC(C)(C)C(=O)N[C@@H](CCCNC(=N)N)C(=O)N[C@@H](C)C(=O)N[C@@H](C)C(=O)N[C@@H](CCC(N)=O)C(=O)N[C@@H](CC(=O)O)C(=O)N[C@@H](Cc1ccccc1)C(=O)N[C@H](C(=O)N[C@@H](CCC(N)=O)C(=O)N[C@@H](Cc1c[nH]c2ccccc12)C(=O)N[C@@H](CC(C)C)C(=O)N[C@@H](CC(C)C)C(=O)N[C@@H](CC(=O)O)C(=O)N[C@H](C(=O)N[C@@H](CCCCN)C(=O)N[C@@H](CCCCNC(=O)COCCOCCNC(=O)COCCOCCNC(=O)CCCCN=[N+]=[N-])C(N)=O)[C@@H](C)O)C(C)C)C(=O)O)C(=O)O [PEP21] | 70 |  | 80 | 1.1

Where two headings read alike, the source gives them in different places.
